The structures appear in SMILES notation.

The target in test [1] is Secretory phospholipase A2. Nature of the test: Inhibition of human recombinant sPLA2 assessed as reduction in 16:0 LPC formation after 30 mins by HPLC-MS analysis. The format is protein assay.
Test [2] concerns the target Secretory phospholipase A2. Nature of the test: Inhibition of human recombinant sPLA2 assessed as reduction in free FA formation after 30 mins by HPLC-MS analysis. The format is protein assay.

The IC50 is the point on the concentration scale where inhibition reaches its midpoint. Consider `CCc1c(C(=O)C(N)=O)c2c(OCC(=O)O)cccc2n1Cc1ccccc1` [VARESPLADIB], for which the IC50 in test [1] came out at 114 nM; in test [2] it was 131 nM.

The record behind these values is ChEMBL document CHEMBL4411313, “Substrate-Specific Inhibition Constants for Phospholipase A2 Acting on Unique Phospholipid Substrates in Mixed Micelles and Membranes Using Lipidomics” (J Med Chem, 2019).
